# Earlier results as cited in patent US6468762B1, “High specificity homocysteinases” (AntiCancer, Inc., priority 1997, dated 2002).
# What was measured:
# [1] = scale where activity toward methionine is assigned 100; cited from earlier work
# [2] = highly purified and active enzyme; unit = 1 micromole substrate converted per minute; cited from earlier work
# [3] = scale where activity toward methionine is assigned 100; cited from earlier work; remark: listed apart in the source
# [4] = scale where activity toward methionine is assigned 100; cited from earlier work; remark: listed apart in the source
substance,measurement,setting,value
L-methionine-alpha-deamino-gamma-mercaptomethane lyase [P. putida enzyme],relative activity toward cysteine,[1],10
same,specific activity,[2],about 20 units/mg
same,relative activity toward homocysteine,[3],180
same,relative activity toward methionine,[4],100
